Yeast mating assay 1: variants of the scFv Ab-14

Reference: Engelhart et al. 2022, doi:10.1038/s41597-022-01779-4. File: FLAb, binding data.

Antigen: PDVDLGDISGINAS, a 14-residue peptide of the SARS-CoV-2 spike HR2 region.

The variants keep the light chain, the linker and the frameworks of Ab-14 (scFv order VH, the linker GGGGSGGGGSGGGGS, VL).
VH: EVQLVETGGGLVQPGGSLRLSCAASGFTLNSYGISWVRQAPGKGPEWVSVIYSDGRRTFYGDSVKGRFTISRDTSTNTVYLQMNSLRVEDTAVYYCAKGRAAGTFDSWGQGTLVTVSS
VL: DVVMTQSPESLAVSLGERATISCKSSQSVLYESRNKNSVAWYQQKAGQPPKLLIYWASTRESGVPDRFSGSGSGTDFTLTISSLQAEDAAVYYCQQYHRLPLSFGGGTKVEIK

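Variants in AAYL49 differ from the parent at up to three CDR positions; double and triple changes were sampled at random. AlphaSeq pools MATa yeast showing the antibodies with MATalpha yeast showing the peptide. The frequency of each diploid, read from paired DNA barcodes, reflects how well the two displayed proteins bind. The ratio of observed to expected reads was calibrated, replicate by replicate, on BCL2-family standards whose Kd was known from biolayer interferometry. Each pool was mated in three replicate cultures.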

Variants are written as CDR1, CDR2 and CDR3 of the heavy chain (limits as in the source). Parent: GFTLNSYGIS, VIYSDGRRTFYGDSVK, GRAAGTFDS. The read-out is the apparent dissociation constant on a log10 scale (nM): the lower, the stronger. The mean shown is taken over the replicates in which the pair was detected. Where no diploid with the target was found in that replicate, the entry reads "nd": below detection, most likely a poor binder, though not proof of it.

The variant GFTLVSYGIS | VIYSDGRRTFYGDSVK | GRAASTFDS showed nd, nd, nd (controls 1 of 9).
The variant GFTDNIRGIS | VIYSDGRRTFYGDSVK | GRAAGTFDS showed nd, nd, nd (controls 1 of 9).
The variant GFTLNSYGIS | VIYSDGRRTFYGDSVQ | GRAAGTFDS showed 2.45, 1.69, 1.80 (mean 1.98; controls 1 of 9).
The variant GFTLPSYGIS | VIYSDGRRTFYGDSVK | GRAAGDFDS showed nd, nd, nd (controls 3 of 9).
The variant GFTLNAYGIS | VTVSDGRRTFYGDSVK | GRAAGTFDS showed nd, nd, nd (controls 0 of 9).
The variant GFTLNSEGIS | VIYSDGRGTFYGDIVK | GRAAGTFDS showed nd, nd, nd (controls 0 of 9).
The variant GFTLNSYGIS | VIYSDGRRDFYGDTVK | GRAAGTFDS showed nd, nd, nd (controls 0 of 9).
The variant GFQLNSYGIL | VIYSDGPRTFYGDSVK | GRAAGTFDS showed nd, nd, nd (controls 1 of 9).
The variant GFTLNSYGIS | VIYHDARRCFYGDSVK | GRAAGTFDS showed nd, 3.50, 6.13 (mean 4.82; controls 4 of 9).
The variant GFTLNSYGIS | VIYSDGRRTFYGDSVK | GDHAVTFDS showed nd, 4.77, 6.20 (mean 5.49; controls 3 of 9).
The variant GFTLNSYGIS | VIWSDGRRMWYGDSVK | GRAAGTFDS showed nd, nd, nd (controls 1 of 9).
The variant GFTLESYGIS | VIYHDGRRTFYGDSVT | GRAAGTFDS showed 2.27, 2.09, nd (mean 2.18; controls 0 of 9).
The variant GFTLNSYGIL | IIYSDGRRTFYGDSVK | GRSAGTFDS showed 3.98, nd, nd (controls 2 of 9).
The variant GFTYNSYGIS | VIYSDKRRTHYGDSVK | GRAAGTFDS showed nd, nd, nd (controls 0 of 9).
The variant GFTLNSYGIS | VIYSDGRRTFYCDSRK | GHAAGTFDS showed nd, nd, nd (controls 0 of 9).
The variant GFTLNSYNGS | VIYSDGRRTFYGDSVK | GRAAGLFDS showed nd, 4.66, nd (controls 3 of 9).
The variant GFTLNSYGNS | VIYSDVRRTFYGDSVK | GRAAGVFDS showed 5.70, 3.66, 3.09 (mean 4.15; controls 4 of 9).
The variant GFTLNLYGAS | VIYSDSRRTFYGDSVK | GRAAGTFDS showed nd, 3.38, nd (controls 1 of 9).
The variant GFTLNSYCIV | VIYSDIRRTFYGDSVK | GRAAGTFDS showed nd, 4.35, nd (controls 2 of 9).
The variant GFTLNSYGIN | VIYSDGRRTIYGDSVK | GWAAGTFDS showed nd, nd, 3.05 (controls 3 of 9).
The variant YFTLNSYGIS | VIYSDMRRTFFGDSVK | GRAAGTFDS showed nd, nd, nd (controls 2 of 9).
The variant GFRLNSYGIS | VIYWDGRRTFYGDSVK | GRAAGTFFS showed nd, nd, nd (controls 0 of 9).
The variant GFTLNSYGIS | VIYSDGRRTFYGDSTK | TRAAWTFDS showed 3.12, 3.13, 4.14 (mean 3.46; controls 3 of 9).
The variant GFTLNSYGIS | VIYSWGRRTFYGTSVK | GRVAGTFDS showed nd, nd, nd (controls 1 of 9).
The variant GFTLCSYGIS | VIYNDGRRTFYGDSVK | GLAAGTFDS showed nd, nd, nd (controls 3 of 9).
The variant GFTLNSYGIS | VIYSDGCRDFYGDSVK | GRAAGTFMS showed nd, nd, nd (controls 0 of 9).
The variant GFTLNSYGIS | VIYSDGRMTPYGDSHK | GRAAGTFDS showed nd, nd, nd (controls 0 of 9).
The variant GFTLNSYGIS | VIYSDGRNTFYGDSVK | GRAAPTFDM showed nd, nd, nd (controls 2 of 9).
The variant GFTLNSYGIS | AIYTDGRRTFYGDHVK | GRAAGTFDS showed 6.23, 4.58, 4.25 (mean 5.02; controls 7 of 9).
The variant GMYLNSYGIS | VIYSDGRRTFYGDSVK | GRAAMTFDS showed nd, 3.61, nd (controls 5 of 9).
The variant GFTLRSYGIS | VIYSDGRRTFYGPSVK | GRAAGTFAS showed nd, nd, nd (controls 0 of 9).
The variant WFTLNSYGIS | VIYSDGRRTFYGDSVK | GRARGTFDS showed 3.98, 2.44, 4.32 (mean 3.58; controls 2 of 9).
The variant GFTLNCYGIS | RIYSDGRRTFYGDSVK | ARAAGTFDS showed nd, nd, nd (controls 2 of 9).

For reference, 2 entries of the list once more:

{"CDR-H1": "GFTLVSYGIS", "CDR-H2": "VIYSDGRRTFYGDSVK", "CDR-H3": "GRAASTFDS", "replicates, log10 nM": "nd, nd, nd", "mean log10 Kd (nM)": "nd", "signal with controls": "1 of 9"}
{"CDR-H1": "GFTLNSYGIS", "CDR-H2": "VIYSDGRRTFYCDSRK", "CDR-H3": "GHAAGTFDS", "replicates, log10 nM": "nd, nd, nd", "mean log10 Kd (nM)": "nd", "signal with controls": "0 of 9"}

Nonspecific signal, from three strains lacking the peptide, appeared in 15% of pairings of library AAYL49, centred on 4.06 (5% of these signals below 2.83); values are not corrected for it. Also given: how often the same scFv was detected with the empty control strains.